# Reference: PMC7583350 (Journal of medicinal chemistry, 2018)
# Key:
# Assay type in all cases: cell-based, human
# [1] = system: U266 cells; experiment: MTS assay, multiple myeloma cell line U266; settings: LCL161-resistant MM cell line, 48 hr, 20 μM
# [2] = system: RPMI 8226 cells; experiment: MTS assay, multiple myeloma cell line RPMI 8226; settings: LCL161-resistant MM cell line, 48 hr, 20 μM
# [3] = system: LP1 cells; experiment: MTS assay, multiple myeloma cell line LP1; settings: LCL161-resistant MM cell line, 48 hr, 20 μM
# [4] = system: L363 cells; experiment: MTS assay, multiple myeloma cell line L363; settings: LCL161-sensitive MM cell line, 48 hr, 20 μM
# [5] = system: H929 cells; experiment: MTS assay, multiple myeloma cell line H929; settings: LCL161-sensitive MM cell line, 48 hr, 20 μM
compound,measurement,setting,value
CN[C@@H](C)C(=O)N[C@@H](Cc1cc(C)c(C(F)(F)F)cc1F)C(=O)N1CCC[C@H]1C(=O)N[C@@H]1CCc2c(F)cccc21 [Compound 31],Growth inhibition U266,[1],equally effective
same,Growth inhibition RPMI 8226,[2],equally effective
same,Growth inhibition LP1,[3],equally effective
same,Growth inhibition L363,[4],approximately equipotent
same,Growth inhibition H929,[5],approximately equipotent
